scFv variants of Ab-14 (light chain) against a SARS-CoV-2 spike peptide

Source: Li et al. 2023 (doi:10.1038/s41467-023-39022-2), MIT Lincoln Laboratory and A-Alpha Bio; data file from the FLAb repository.

Target peptide (SARS-CoV-2 spike, HR2 region): PDVDLGDISGINAS

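The parent was found by panning a naive human phage display library on the peptide. Designed CDR sequences, proposed from the first random library and measured here. Several design methods are mixed in this list. In AlphaSeq, yeast of one mating type display the scFv and yeast of the other type display the target. The frequency of each diploid, read from paired DNA barcodes, reflects how well the two displayed proteins bind. A regression on co-assayed BCL2-family reference pairs converts the normalised counts of each replicate to an apparent Kd. Mating was done six times.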

The variants keep the heavy chain, the linker and the frameworks of Ab-14 (scFv order VH, a 15-residue (Gly4Ser)3 linker, VL).
VH: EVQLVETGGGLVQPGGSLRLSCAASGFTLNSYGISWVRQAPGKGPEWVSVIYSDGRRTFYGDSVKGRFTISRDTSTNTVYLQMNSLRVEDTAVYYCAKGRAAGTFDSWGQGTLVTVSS
VL: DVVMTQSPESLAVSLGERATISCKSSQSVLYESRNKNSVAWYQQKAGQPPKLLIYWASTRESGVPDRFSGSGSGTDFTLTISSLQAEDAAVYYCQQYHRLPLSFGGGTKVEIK

Variants are written as CDR1, CDR2 and CDR3 of the light chain (limits as in the source). Parent: KSSQSVLYESRNKNSVA, WASTRES, QQYHRLPLS. Variants here have more than six changes. Each Kd is an estimate from the mating assay, the geometric mean of the replicates in which the pair was seen; lower is stronger. Where no diploid with the target was found in any replicate, the entry reads "no signal": below detection, most likely a poor binder, though not proof of it. Of ten entries with the parent sequence, four were seen in most replicates (averages 2.2 nM to 240 nM), three in one and three in none, so single entries are noisy. Background: pairings of all light chain designs with three empty control strains gave a value in 4% of cases (median 430 nM, 5th percentile 38 nM). Values in that range, when seen in few replicates, are hard to tell from nonspecific mating. In the paper, a design with two or fewer of six values counts as a poor binder. A sequence measured in both rounds can read differently, since the two assays cover different ranges.

- KLDQSVQGGSRNKNSVA, HANQRES, QQYHRLPLY -> 4.1 nM (6 of 6 replicates)
- MVSMNIYGEYRHRDNVA, HASMRED, QCYDRLPLS -> 940 pM (6 of 6 replicates)
- KLSQSELYESRQFNSVA, HASQRNL, QQYHRLPLS -> 2.2 nM (6 of 6 replicates)
- KLRESIHVEQKQKNNVA, DNSTRES, QDYHRLPLS -> 730 nM (1 of 6 replicates)
- SMMFDTSDNYHERNNVA, DQAAIMA, QQYSILPLS -> 17 nM (4 of 6 replicates)
- KLSQSTLYEMRNTNSVA, QASQRLQ, QQYHRLPLS -> 760 pM (6 of 6 replicates)
- KLSQSEEYESRQFNSVA, HASQRNL, QQYHRLPLS -> 2.1 nM (6 of 6 replicates)
- TISQLMHYESRNKNNVA, GTSTRES, QCYHRLPLS -> 15 nM (6 of 6 replicates)
- KLKIEVIDNQQLRNSIA, ENELRAM, QQYLSLPLS -> 46 nM (6 of 6 replicates)
- KLSTSVMLESRNVNSVA, DASTREE, QQYHRLPLS -> 210 pM (6 of 6 replicates)
- QLELVQSNDTILENNVA, HAEVSGR, QQYSQLPLI -> 380 nM (1 of 6 replicates)
- MIEIIHDGYMEMRSAIA, DTSLVRM, QQYYRLPLM -> no signal (0 of 6 replicates)
- MISQLYNMGQFAINSVA, QGQTRNE, QQYDRLPLM -> 19 nM (6 of 6 replicates)
- ILTGMLNPAGQQQHSIA, HGGIKIE, QQYNRLPLA -> 5.1 nM (6 of 6 replicates)
- IVSQLMIWGMHAKNSIA, EAETRLN, QQYERLPLF -> no signal (0 of 6 replicates)
- NLSAMTAHESVKSKNVA, ERSTRES, QQYNRLPLS -> 8.5 nM (6 of 6 replicates)
- KISQMVNFESTHIQAVA, QMSTREE, QQYFRLPLS -> 4.2 nM (6 of 6 replicates)
- IIYESAGTLSRNTNSVA, DNSTREK, QQYDRLPLS -> 170 nM (6 of 6 replicates)
- MISLCQNSYYDANNSIA, DRNERAM, QQYGRLPLV -> 42 nM (6 of 6 replicates)
- KGMGSMLYESRNDNSVA, NASQRES, QQYHRLPLS -> 2.6 nM (6 of 6 replicates)
- RMDMAMPHAHSNINSIA, EGAIQAD, QQYDRLPLS -> 11 nM (6 of 6 replicates)
- KLRQVTGWESYNKNSVA, QTSTRAS, QDYHRLPLS -> 13 nM (6 of 6 replicates)
- TISGLIMMPSRAKNSVA, NTSTRYS, QQYHRLPLS -> 5.8 nM (6 of 6 replicates)
- QISMLSLNDDSAHSNIA, AHVMLSS, QQYSHLPLS -> 3.5 nM (1 of 6 replicates)
- TISMVMNHMTREKNNVA, NMDMREE, QQYDRLPLS -> 980 pM (6 of 6 replicates)
- KLEQGVDMESRNKNSVA, HAQMRES, QQYHRLPLS -> 830 pM (6 of 6 replicates)
- MFSQLFMYGSRNKHSVA, QASTRES, QQYDRLPLI -> 19 nM (6 of 6 replicates)
- RVTIISDPYMENRNNIA, QTSLRAH, QQYQMLPLA -> 340 pM (6 of 6 replicates)
- MLSEVLHMLGVAKNSIA, DLVIRAN, QQYHRLPLF -> no signal (0 of 6 replicates)
- TLGQSTLMESRNVNNVA, QMSTREK, QQYHRLPLS -> 650 pM (6 of 6 replicates)
- VLPDNLLMKESQYHSIA, NGVQRME, QQYMRLPLM -> 730 pM (6 of 6 replicates)
- IVSQLMLWGWSASNSIA, EAVTRLN, QQYDRLPLI -> 44 nM (4 of 6 replicates)
- TISQSFNMENQFKNSVA, QASTRES, QCYDRLPLS -> 1.1 nM (6 of 6 replicates)
- KLSMVTGHMSVSKNNVA, EMETREN, QQYDRLPLS -> 3.6 nM (6 of 6 replicates)
- RMNKFMSEIGGARNSIA, GAEHLAQ, QHYHRLPLS -> 17 nM (6 of 6 replicates)
- KSSQSVRMEELNSNSVA, HASVREQ, QQYHRLPLS -> 1.8 nM (6 of 6 replicates)
- TVSQVHEMLSRNKNSVA, DNNTRES, QQYDRLPLS -> 290 nM (2 of 6 replicates)
- KISYMGEHFSTNHQAIA, QASTREQ, QQYHRLPIS -> 9.5 nM (6 of 6 replicates)
- TISGIMMQMSHSKNNVA, EVSMRLD, QQYFRLPLE -> 22 nM (6 of 6 replicates)
- MISQLTNMGTFAINSVA, QASLRNE, QQYDRLPLM -> 81 nM (6 of 6 replicates)
- RLRELNFYSGNGRNNIA, DAHIHEV, QQYSQLPLF -> 2.4 nM (6 of 6 replicates)
- QVFAFNEHLKDQQQAMA, NATMRDQ, QQYERLPLS -> 21 nM (6 of 6 replicates)
- KLSSITGHMQVEKNNVA, EMETREK, QQYNRLPLA -> 3.5 nM (6 of 6 replicates)
- KSEPLYYYGDRNKNSVA, QASTRES, QQYHRLPLS -> 960 pM (6 of 6 replicates)

Top 6 of the variants detected in all replicates, tightest first:

CDR-L1,CDR-L2,CDR-L3,apparent Kd,replicates with signal
KLSTSVMLESRNVNSVA,DASTREE,QQYHRLPLS,210 pM,6/6
RVTIISDPYMENRNNIA,QTSLRAH,QQYQMLPLA,340 pM,6/6
TLGQSTLMESRNVNNVA,QMSTREK,QQYHRLPLS,650 pM,6/6
VLPDNLLMKESQYHSIA,NGVQRME,QQYMRLPLM,730 pM,6/6
KLSQSTLYEMRNTNSVA,QASQRLQ,QQYHRLPLS,760 pM,6/6
KLEQGVDMESRNKNSVA,HAQMRES,QQYHRLPLS,830 pM,6/6